# From publication PMC6418135
# Molecular target: Recombinant mouse VDAC1 (voltage-dependent anion channel) (mouse) (UniProt Q60932)
# Assay: single-channel current recording (planar lipid bilayer, nanopore blockage); VDAC single channel reconstituted in pure DOPE (PE) planar membrane; 10 nM α-syn in solution; 1 M KCl, 5 mM HEPES pH 7.4; -35 mV
substance,measurement,value
α-synuclein (WT) (from UniProt P37840 1-140) (natural protein),"fold difference of kon, PE membrane against PC membrane",10 fold
